Assay results as given in US8710224B2, “Heterocyclic compounds as CCR2B antagonists” (AstraZeneca AB, priority 2004, dated 2014).
pIC50: −log10 of the molar value.

The chains behind the UniProt entries cited, without tags or fusion partners.
UniProt P51681, whole entry: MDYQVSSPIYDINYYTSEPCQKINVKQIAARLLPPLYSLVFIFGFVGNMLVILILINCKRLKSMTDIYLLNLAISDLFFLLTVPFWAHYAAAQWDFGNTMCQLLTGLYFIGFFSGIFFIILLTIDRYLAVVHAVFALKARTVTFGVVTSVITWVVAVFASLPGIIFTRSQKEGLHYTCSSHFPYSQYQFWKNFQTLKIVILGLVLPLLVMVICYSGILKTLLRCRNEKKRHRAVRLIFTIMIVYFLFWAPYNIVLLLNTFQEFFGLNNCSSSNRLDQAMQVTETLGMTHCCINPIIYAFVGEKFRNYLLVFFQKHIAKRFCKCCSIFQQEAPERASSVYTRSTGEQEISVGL

Target: T1, recombinant human CCR5 receptor (Homo sapiens, UniProt P51681)
T1 construct: expressed in transfected cells; host or cells: Chinese hamster ovary (CHO) cells; membranes
Assay: Radioligand binding assay for inhibition of the binding of MIP-1α
Experimental: Biological Assay for the Ability of Compounds to Inhibit the Binding of MIP-1α This ability is assessed using an in vitro radioligand binding assay. Membranes are prepared from Chinese hamster ovary cells which express the recombinant human CCR5 receptor. These membranes are incubated with 0.1 nM iodinated MIP-1α, scintillation proximity beads and various concentrations of the compounds of the invention in 96-well plates. The amount of iodinated MIP-1α bound to the receptor is then determined by scintillation counting.

**Q.** How did the pIC50 turn out when O=C(Nc1ccc(Cl)c(Cl)c1)N1CCN(C[C@@H]2CCCN(Cc3ccccc3)C2)CC1 [Example 18, 4-{[(3R)-1-benzylpiperidin-3-yl]methyl}-N-(3,4-dichlorophenyl)piperazine-1-carboxamide] was run?
**A.** > 5.00
